Test results: article PMC8215300

Sequences of proteins named here, by UniProt entry; tags and fusion partners are left off. Residues count along the entry.
UniProt P61073, whole entry: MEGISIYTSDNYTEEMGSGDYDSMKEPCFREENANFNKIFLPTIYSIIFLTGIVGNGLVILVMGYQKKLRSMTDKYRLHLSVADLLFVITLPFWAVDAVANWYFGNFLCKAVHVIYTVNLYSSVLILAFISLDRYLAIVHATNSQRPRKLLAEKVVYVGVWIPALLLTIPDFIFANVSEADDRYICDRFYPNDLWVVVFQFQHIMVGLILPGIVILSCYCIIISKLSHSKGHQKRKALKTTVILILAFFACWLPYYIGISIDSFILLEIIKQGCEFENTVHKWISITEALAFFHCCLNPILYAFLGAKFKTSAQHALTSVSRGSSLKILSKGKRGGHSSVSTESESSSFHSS
UniProt P48061, 22-89: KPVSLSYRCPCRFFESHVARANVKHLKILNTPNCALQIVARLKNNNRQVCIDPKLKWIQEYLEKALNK

Molecular target: chemokine receptor CXCR4 (human (endogenous in DU145, PC3 and HEK293)) (UniProt P61073)

## Human stromal cell–derived factor 1α (from UniProt P48061-2 22-89) (ligand)
  ARF1 activation by SDF1α (0–200 ng/ml) in DU145 cells, GST fusion protein pulldown of active ARF1, EC50: 6.3 nM
  ARF1 activation by SDF1α (0–200 ng/ml) in HEK293 cells, GST fusion protein pulldown of active ARF1, EC50: 4.1 nM
  ARF1 activation by SDF1α (0–200 ng/ml) in PC3 cells, GST fusion protein pulldown of active ARF1, EC50: 7 nM
